Results from US9981961B2, “Deoxycytidine kinase inhibitors” (The Regents of the University of California, priority 2013, dated 2018).

Amino acid sequences for entries named in this document (tags omitted).
UniProt P27707, whole entry: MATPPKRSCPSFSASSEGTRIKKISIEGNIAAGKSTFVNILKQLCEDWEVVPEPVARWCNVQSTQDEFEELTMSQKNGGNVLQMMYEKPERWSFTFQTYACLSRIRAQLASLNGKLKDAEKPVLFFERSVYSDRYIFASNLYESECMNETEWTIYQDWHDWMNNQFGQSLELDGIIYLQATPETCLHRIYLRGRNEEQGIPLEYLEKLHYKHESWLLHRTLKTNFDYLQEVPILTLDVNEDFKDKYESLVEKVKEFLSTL

Molecular target: dCK in CCRF-CEM cells (Homo sapiens, UniProt P27707)

| SMILES | IC50 |
| --- | --- |
| COCCOCCOCCOc1cc(-c2nc(C(C)Sc3nc(N)cc(N)n3)c(C)s2)ccc1OCCNS(C)(=O)=O (centres unmarked) | 61.4 nM |
| Cc1sc(-c2ccc(OCCNS(C)(=O)=O)c(OCCNS(C)(=O)=O)c2)nc1C(C)Sc1nc(N)cc(N)n1 (centres unmarked) | 200 nM |
